# Tested on: castrated (GDX) male Sprague Dawley rats
# Assay: In vivo model of efficacy and selectivity (delayed rat gonadectomy model)
# Conditions: after 2 weeks of treatment; for effect on striated muscles LA and BC: delayed rat gonadectomy model; for androgenic risk (increase in prostate wet weights): same animals
Compound,effect on striated muscles LA and BC,androgenic risk (increase in prostate wet weights)
"Cc1c(N[C@@H]2CCC[C@@]2(C)O)ccc(C#N)c1Cl (single isomer, unassigned) [Example 1]",dose-dependent increase,minimal accrual of androgenic risk
"Cc1c(N[C@H]2CCC[C@@]2(C)O)ccc(C#N)c1Cl [Example 2, 2-Chloro-4-[[(1S,2R)-2-hydroxy-2-methyl-cyclopentyl]amino]-3-methyl-benzonitrile]",dose-dependent increase,minimal accrual of androgenic risk
